CAL PDZ FP-1 – CAL PDZ (human) peptide binding inhibition. Q9HD26. purified CAL PDZ, TMR-peptide fluorescence polarization, 1 h. inhibition, % at 24.9 µM. hit rate 0.92% among 300,000;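 active means mean inhibition of at least 30% with at least half of replicates also reaching 30%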;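 further: 0% = DMSO neutral control and 100% = excess unlabeled competitor peptide PRC23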
Dyrk1A ADPGlo – Dyrk1A (rat) kinase inhibition; ADP-Glo luminescence, NFATc1 peptide; hit rate 0.43% among 310,000; inhibition, % at 12.5 µM; in the data active means inhibition above about 50%;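 further: plate controls were vehicle with enzyme for no effect and no enzyme for full effect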
dFosB activator – mouse delta FosB homodimer activation | P13346 | purified delta FosB, TAMRA-CDK5 oligo fluorescence polarization; percent of positive-control signal above neutral wells | activation, % at 25 µM | hit rate 0.99% among 340,000;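 active means mean activation above about 17%, with every replicate also reaching it, limit read from the data, passing the limit was not always enough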
CDK5 p35 inh – inhibitors of human CDK5/p35 kinase; Q00535+Q15078; Recombinant CDK5/p35, ADP-Glo luminescence, 60 min; inhibition, % at 10 µM; hit rate 0.01% among 330,000; AID 488839;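 active means highest replicate inhibition of at least 50% and at least 75% of replicates reaching 50%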;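 further: plate controls were DMSO neutral control for no effect and GW8510 at 10 µM for full effect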
Yeast UUG start – modulators of start codon recognition fidelity in yeast; AID 602363; activity score, % at 18.7 µM; S. cerevisiae UUG-firefly luciferase reporter, luminescence/redox ratio; 0.13% of 350,000 active;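 active = replicate mean at a twofold rise or more, about +100% in these data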;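 note: firefly luciferase made from a UUG start codon reports start codon fidelity; reporter light over untreated wells divided by growth signal over untreated wells; some hits fall short of that in this replicate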
CAL PDZ FP-2 – inhibitors of human CAL PDZ peptide binding. hit rate 0.02% among 330,000. AID 504414. inhibition, % at 20 µM. purified CAL PDZ, TMR-peptide fluorescence polarization, 1 h;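 active means highest replicate inhibition of at least 40%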;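 further: plate controls were DMSO neutral control wells for no effect and unlabeled competitor peptide control wells for full effect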
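Material: tagged CAL PDZ domain; buffer or medium: 25 mM sodium phosphate pH 7.4, 150 mM NaCl, TCEP, IgG, Thesit; compound dosing: single point, 20 µM; schedule: 1 h incubation at room temperature before polarization reading; measured by: FP readout, S and P plane fluorescence; read-out basis: percent inhibition from loss of millipolarization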
An asterisk follows results filed as active; / = no result given. An excerpt weighted towards active compounds, which were near 1.7% of everything screened.

SMILES | CAL PDZ FP-1 | Dyrk1A ADPGlo | dFosB activator | CDK5 p35 inh | Yeast UUG start | CAL PDZ FP-2
Cc1ccc(C)c(NC(=S)NCCN(C2CCCCC2)C2CCCC2)c1 | 64.8* | -2.0 | -3.3 | 1.7 | -14.4 | -0.9
COc1ccc(-c2nn(-c3ccccc3)cc2/C=C/C(=O)N2CCOCC2)cc1OC | 52.6* | -1.4 | -0.8 | -1.2 | / | -1.2
C=CCOc1cccc(C(=O)N2CCCC(CCC(=O)NCc3ccccc3F)C2)c1 (configuration not stated) | 73.7* | 5.7 | 1.0 | -0.3 | / | -0.4
COc1ccc(C(=O)N2CCCC(CCC(=O)NCc3ccc(F)c(F)c3)C2)o1 (configuration not stated) | 50.5* | -1.3 | -3.4 | -0.7 | -2.7 | -0.3
O=C(C[C@H]1C=C[C@H](NC(=O)Cc2cccnc2)[C@@H](CO)O1)NCc1ccc2c(c1)OCO2 | / | / | / | / | 0.9 | /
Cc1cc(OCC(=O)NCc2ccccn2)c2c(C)cc(=O)oc2c1 | 47.1* | 6.9 | -13.3 | 1.6 | -29.4 | -0.2
CC(C)(C)OC(=O)N1CCC(NC(=O)c2[nH]cnc2C(=O)Nc2cccc(Cl)c2)CC1 | 45.3* | -5.1 | -10.3 | 0.7 | -22.0 | 0.2
CC(C)(C)OC(=O)N1CCC(NC(=O)c2nc[nH]c2C(=O)NC2CCN(C(=O)OC(C)(C)C)CC2)CC1 | -1.8 | 6.5 | -7.8 | 3.7 | -1.3 | -0.2
COc1ccc(/C=C2\SC(=S)N(CC(=O)NC3C=CS(=O)(=O)C3)C2=O)cc1 (configuration not stated) | -1.4 | -7.3 | 85.3* | -4.3 | -2.3 | -2.3
O=C(CN1C(=O)/C(=C/c2ccc(Cl)cc2)SC1=S)NC1C=CS(=O)(=O)C1 (configuration not stated) | -1.4 | -0.6 | 22.7* | 0.8 | -19.1 | -1.2
O=C(CN1C(=O)/C(=C/c2ccc(F)cc2)SC1=S)NC1C=CS(=O)(=O)C1 (configuration not stated) | -5.9 | 0.6 | 26.1* | 0.8 | -20.3 | -2.3
Cc1noc(C)c1NC(=O)Nc1ccc2c(c1)CC(=O)N([C@@H](C)CO)C[C@@H](C)[C@H](CN(C)Cc1ccc3c(c1)OCO3)O2 | / | / | / | / | -4.8 | /
O=C(C[C@@H]1CC[C@@H](NS(=O)(=O)c2ccc(F)cc2)[C@H](CO)O1)NC1CCCCC1 | / | / | / | / | -8.4 | /
Cc1ccc(O)c(C(=O)C=Cc2ccccc2)c1 | -4.8 | -5.8 | -9.2 | -0.6 | / | -0.9
O=C(C=Cc1ccccc1)c1cc(Br)ccc1O | 80.8* | -4.2 | -5.8 | -1.7 | -7.7 | 20.9
CC1(c2ccc3c(c2)OCO3)NC(=O)N(CC(=O)Nc2ccccc2[N+](=O)[O-])C1=O (configuration not stated) | 46.1* | / | -4.5 | -0.3 | -9.4 | -0.8
CC1CN(C(=S)Nc2ccccc2)N(c2ccccc2)C1 (configuration not stated) | 67.1* | 3.2 | 0.3 | 0.5 | / | -1.0
CC1CN(C(=S)Nc2ccccc2)CC(C)O1 (configuration not stated) | -1.7 | / | -1.1 | -1.6 | -24.2 | -0.6
CC(=O)Nc1ccc(C(=O)CN2C(=O)NC3(CCOc4ccccc43)C2=O)c(F)c1 (configuration not stated) | 39.6* | 1.0 | -1.6 | 0.5 | -7.5 | -1.0
CCc1ccccc1N(CC(=O)NCCc1ccccc1)C(=O)CCC(=O)Nc1ccccn1 | 65.1* | 3.6 | -8.6 | 0.9 | 1.5 | -0.5
Cc1ccccc1N(CC(=O)NCCc1ccccc1)C(=O)CCC(=O)Nc1ccccn1 | -0.9 | 2.1 | -6.7 | 1.8 | -7.1 | -2.6
COc1ccc(N=C(c2ccccc2)c2c(C)[nH]n(-c3ccccc3)c2=O)c(OC)c1 | 36.3* | 5.1 | -13.1 | -0.2 | -12.4 | -1.2
C[C@H]1CN([C@@H](C)CO)C(=O)c2cc(NC(=O)Nc3cccc4ccccc34)ccc2O[C@H]1CN(C)Cc1ccc(C(=O)Nc2ccccc2N)cc1 | / | / | / | / | -4.3 | /
Cc1ccnc(NC(=O)c2ccc(Br)s2)c1 | 63.2* | 3.3 | -4.6 | 4.9 | -24.9 | /
O=C(c1cnn(-c2ccccc2)c1)c1ccccc1O | -3.4 | 5.1 | -7.4 | 0.9 | / | -0.5

Record cards (already shown). Screens in order: CAL PDZ FP-1	Dyrk1A ADPGlo	dFosB activator	CDK5 p35 inh	Yeast UUG start	CAL PDZ FP-2
CC1(c2ccc3c(c2)OCO3)NC(=O)N(CC(=O)Nc2ccccc2[N+](=O)[O-])C1=O (configuration not stated) is listed as 46.1*	/	-4.5	-0.3	-9.4	-0.8
Cc1cc(OCC(=O)NCc2ccccn2)c2c(C)cc(=O)oc2c1 is listed as 47.1*	6.9	-13.3	1.6	-29.4	-0.2

Next part
SMILES | CAL PDZ FP-1 | Dyrk1A ADPGlo | dFosB activator | CDK5 p35 inh | Yeast UUG start | CAL PDZ FP-2
O=C(c1cnn(C(=O)CN2CCCC2=O)c1)c1ccccc1O | 93.1* | 12.1 | 0.3 | -0.7 | 5.9 | 13.2
C[C@@H]1CCCCO[C@H](CN(C)C(=O)Nc2ccc(F)cc2)[C@H](C)CN([C@H](C)CO)C(=O)c2cc(NC(=O)CCC(F)(F)F)ccc2O1 | / | / | / | / | 7.0 | /
CSCCC(NC(=O)c1ccco1)C(=O)NCCc1ccc(Cl)cc1 (configuration not stated) | 100.1* | 4.1 | -0.7 | -0.7 | -4.6 | -0.2
OC[C@H]1Nc2ccc(-c3cccc(F)c3)cc2[C@@H]2[C@H]1CCN2Cc1ccc(F)cc1 | / | / | / | / | -1.3 | /
C/C=C/c1cnc2c(c1)C(=O)N([C@@H](C)CO)C[C@H](C)[C@H](CN(C)S(=O)(=O)c1ccc(F)cc1)O2 | / | / | / | / | 16.5 | /
COc1cccc(OC)c1C(=O)N1CCN(Cc2ccc3c(c2)OCO3)CC1 | / | 0.3 | -1.8 | 0.8 | -8.4 | -0.1
COc1cc(SC)ccc1C(=O)N1CCN(Cc2ccc3c(c2)OCO3)CC1 | 45.5* | 0.7 | -2.6 | -1.3 | -3.5 | -0.9
COc1ccc(NC(=O)N(C)C[C@H]2Oc3ccc(NC(=O)NC4CCCCC4)cc3CC(=O)N([C@H](C)CO)C[C@H]2C)cc1 | / | / | / | / | -6.2 | /
O=C(O)C1CC=CCC1C(=O)NCCCCc1ccccc1 (configuration not stated) | 81.9* | 0.9 | -0.8 | 1.3 | / | -1.1
CC(=O)N1[C@@H]2Cn3c(ccc(C4=CCCC4)c3=O)[C@H]1[C@@H](C(=O)NC1CCCCC1)[C@@H]2CO | / | / | / | / | 9.2 | /
Cc1cccc(OCc2nnc(SCc3nc4ccccc4c(=O)[nH]3)o2)c1 | / | 3.1 | 45.5* | -0.1 | 0.6 | 0.3
Cc1cccc(OCc2nnc(SCC(=O)N3CCCC3)o2)c1 | 6.1 | -5.4 | -0.5 | 6.7 | -12.3 | -1.7
Cc1cn(S(=O)(=O)c2ccc(Cl)cc2)c(C)n1 | 78.0* | -3.1 | -2.5 | -1.2 | / | -1.4
Cc1cc(C)n(S(=O)(=O)c2ccc(Cl)cc2)n1 | -2.8 | -7.0 | -5.2 | 0.4 | 10.8 | -1.0
O=c1[nH][nH]c2c(N=Cc3ccccc3O)ccc(F)c12 | -6.8 | 58.0* | -26.9 | -2.1 | -10.9 | 1.2
CCc1ccc(O)c(N=Cc2ccccc2O)c1 | -1.1 | -0.3 | 0.7 | -2.1 | / | -1.3
COC(=O)Cn1c(O)c(N=NC(=O)CNC(=O)c2ccc3c(c2)OCCO3)c2ccccc21 | 1.3 | -0.7 | -15.7 | -5.4 | -11.4 | -1.3
O=C(CN1CCCCC1)N=Nc1c(O)[nH]c2ccccc12 | 40.6* | -1.5 | -2.5 | 0.5 | / | -1.0
O=C(CNC(=O)c1ccc2c(c1)OCCO2)N=Nc1c(O)[nH]c2ccccc12 | -1.9 | -5.1 | 24.2* | -0.4 | -10.7 | -3.3
O=C(CN1CCN(Cc2ccccc2)CC1)N=Nc1c(O)[nH]c2ccccc12 | 2.3 | 0.9 | -6.4 | 0.3 | / | -3.0

Given with two lines to a compound: entries from further up.
Results follow in this order: CAL PDZ FP-1, Dyrk1A ADPGlo, dFosB activator, CDK5 p35 inh, Yeast UUG start, CAL PDZ FP-2
COC(=O)Cn1c(O)c(N=NC(=O)CNC(=O)c2ccc3c(c2)OCCO3)c2ccccc21
    1.3, -0.7, -15.7, -5.4, -11.4, -1.3
O=C(O)C1CC=CCC1C(=O)NCCCCc1ccccc1 (configuration not stated)
    81.9*, 0.9, -0.8, 1.3, /, -1.1
CC(=O)N1[C@@H]2Cn3c(ccc(C4=CCCC4)c3=O)[C@H]1[C@@H](C(=O)NC1CCCCC1)[C@@H]2CO
    /, /, /, /, 9.2, /
CSCCC(NC(=O)c1ccco1)C(=O)NCCc1ccc(Cl)cc1 (configuration not stated)
    100.1*, 4.1, -0.7, -0.7, -4.6, -0.2

High-throughput results (PubChem BioAssay)
